Experimental data from patent EP4831186A1, “FUSED TRICYCLIC COMPOUND AND MEDICAL USE THEREOF” (dated 2026).

Columns and labels:
[1] = In vivo pharmacokinetics in mice; conditions: ICR mice, intragastric administration, 35 mg/kg
AsPc-1 cells = assay: Inhibitory activity against AsPc-1 cell proliferation (CCK-8); conditions: read-out: Inhibitory activity IC50 against proliferation of AsPc-1 cells, 72 h incubation
Capan-1 cells = assay: Inhibitory activity against Capan-1 cell proliferation (CCK-8); conditions: read-out: Inhibitory activity IC50 against proliferation of Capan-1 cells, 5 days incubation

## C#Cc1c(F)ccc2cccc(-c3nc4c5c(nc(OCC67CCCN6CC(F)C7)nc5c3F)N(C(C)c3cccnc3NP(=O)(O)O)C(C)CO4)c12 (stereo not shown)
[1]
  oral pharmacokinetic parameters (including Tmax, Cmax, AUC, etc.) in mice: good oral pharmacokinetic parameters
AsPc-1 cells
  IC50: < 0.1 µM
Capan-1 cells
  IC50: < 0.1 µM

## C[C@H](c1cccnc1NP(=O)(O)O)N1c2nc(OC[C@@]34CCCN3C[C@H](F)C4)nc3c(F)c(-c4cc(N)cc(Cl)c4C(F)(F)F)nc(c23)OC[C@@H]1C
AsPc-1 cells
  IC50: < 0.1 µM
Capan-1 cells
  IC50: < 0.1 µM

## C#Cc1c(F)ccc2cccc(-c3nc4c5c(nc(OCC6CCCN6C)nc5c3F)N(C(C)c3cccnc3NP(=O)(O)O)C(C)CO4)c12 (stereo not shown)
AsPc-1 cells
  IC50: < 0.1 µM
Capan-1 cells
  IC50: < 0.1 µM
